# From US6617438B1, “Oligoribonucleotides with enzymatic activity” (Sirna Therapeutics, Inc., priority 1997, dated 2003)
# System: SKBR-3
# Assay type: cell-based
# Details: 0.5 nM in medium containing 0.1% or no FBS
substance,measurement,value
Herceptin®: anti-HER2 humanized monoclonal antibody (Genentech),Maximal inhibition of proliferation,~50%
